{"source": "patent EP0385445A2", "about": "“Method of forming a suspension and composition formed by said method” (Horikoshi, Isamu, priority 1989, dated 1990)", "experiment": "Oral absorption of lipid-soluble drugs reduced to microspheres with MFGM", "details": "drug reduced to microspheres with MFGM", "data": [{"substance": "vitamin D", "values": [{"measurement": "ability of MFGM to promote the absorption", "result": "also observed"}]}]}
